Biological target: Endothelin-1 receptor (Homo sapiens, UniProt P25101)
Experiment: Displacement of 125[I]-ET-1 from human ETA

Amino acid sequences for entries named in this document (tags omitted).
UniProt P25101, whole entry: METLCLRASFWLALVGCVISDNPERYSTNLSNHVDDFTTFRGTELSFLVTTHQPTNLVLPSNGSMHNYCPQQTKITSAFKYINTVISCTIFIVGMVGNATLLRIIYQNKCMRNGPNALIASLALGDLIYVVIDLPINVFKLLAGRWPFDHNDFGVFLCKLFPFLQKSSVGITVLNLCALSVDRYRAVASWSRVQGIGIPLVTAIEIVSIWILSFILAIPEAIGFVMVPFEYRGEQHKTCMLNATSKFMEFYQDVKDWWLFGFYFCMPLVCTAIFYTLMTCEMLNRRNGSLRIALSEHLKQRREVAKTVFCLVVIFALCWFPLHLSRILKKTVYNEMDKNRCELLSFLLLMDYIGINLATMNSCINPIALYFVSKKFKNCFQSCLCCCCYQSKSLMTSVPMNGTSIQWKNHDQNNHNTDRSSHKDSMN

- Ki: 0.013 µM
SMILES: COc1nc(C)cnc1NS(=O)(=O)c1cccnc1-c1ccc(-c2nnco2)cc1 [ZIBOTENTAN]

Source: ChEMBL document CHEMBL6071202, “Design, Synthesis, and Biological Evaluation of 3-Amino-pyrazine-2-carboxamide Derivatives as Novel FGFR Inhibitors” (ACS Med Chem Lett, 2024)
